We go through three substances from publication doi:10.1101/2025.02.07.636106.

The other results are listed elsewhere or left out.

The assay deals with Nectin-3 (UniProt Q9NQS3). Put plainly: co-fractionation; co-fractionation.
As to “Low-density lipoprotein receptor, P01130”, the “listed as a hit” value is reported as “yes”. As for “VWFA and cache domain-containing protein 1, Q5VU97”, the entry is “yes”; as for Sulfate transporter, P50443, “yes”.
